Measurements as given in patent publication US20260265699A1, “STANDARDISING PLURIPOTENT STEM CELLS” (United Kingdom Research and Innovation, priority 2023, published 2026).

Tested on: PSC lines that did not readily differentiate into neural tissue
Experiment: Cerebral organoid differentiation, unguided protocol (STEMdiff Cerebral Organoid Kit), panel of bad differentiator lines
Type: cell-based, human
Conditions: added to generate EBs; due to cell death
Source text: The so called “unguided protocol” relies on the natural propensity of PSCs to differentiate to neural fate and specifically forebrain when not exposed to any growth factors. The inventors cultured PSCs in Stemflex (Thermo) medium on plates coated with Matrigel growth factor reduced (Corning) and for generation of brain organoids they used STEMdiff Cerebral Organoid Kit (Stemcell Technologies). […] To address this variability that plagues not only the neural organoid field but also others that rely on 2D and 3D differentiation to a variety of cell types, the inventors investigated the potential sources of this variability in PSCs and potential treatments to address this problem or, in other words, to standardise the performance of PSCs during differentiation.
Because neural differentiation represents the default program upon pluripotency exit, the ability of a cell line to undergo such unguided differentiation is also a good indication of their pluripotent state. The other approach was to in depth characterise PSC lines that either produce good or bad organoids by proteomics and phosphoproteomics, analysis of already available bulk RNAseq data to learn about their transcriptome, and by ATACseq to learn about open chromatin patterns. […] Based on the combination of information gathered from both approaches, a number of treatments were chosen to test on the bad differentiators.

alpha-ketoglutarate
Effect: embryoid body formation: Embryoid bodies don't form
